Reference: patent US6476021B1 (priority 1997, dated 2002)

Assay: Toxicity test, peroral administration for 4 days
Conditions: male Wistar rats, daily dose 100 mg/kg

5-benzyl-4H[6]-azaindolo[3,2,1-ij]quinolin-4-one
death of animals until the next day after the end of administration: none of the animals were found to be dead
